Source: PubChem BioAssay
Yeast UUG start-1: modulators of start codon recognition fidelity in yeast. activity score, % at 18.7 µM. S. cerevisiae UUG-firefly luciferase reporter, luminescence/redox ratio. 350,000 compounds, 0.13% hits;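 active means replicate mean at a twofold rise or more, about +100% in these data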;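 further: firefly luciferase made from a UUG start codon reports start codon fidelity; reporter light over untreated wells divided by growth signal over untreated wells; some hits fall short of that in this replicate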
PGC1a acetyl inh: modulators of PGC1a acetylation; inhibition, % at 15.6 µM; U2OS PGC1a acetylation, AlphaScreen anti-acetyl-lysine; with virally co-expressed GCN5 acetyltransferase; 350,000 compounds, 0.17% hits;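 active = every replicate shows inhibition of at least 40%; inconclusive = mean inhibition at least 40% but some replicate below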;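 note: 0% = neutral control wells and 100% = positive control wells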
Cneo AK release: causes C. neoformans cell lysis; lysis activity, % at 15 µM; AID 651654; 360,000 compounds, 0.2% hits; adenylate kinase release luminescence, 4 h; normalised: neutral wells 0, clomiphene wells 100;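 active = mean lysis activity across replicates of at least 80%, whatever share of replicates individually reach that level; inactive = mean lysis activity below 80%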
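Material: C. neoformans cells | Amount: Yeast cell density of 5 × 10^6 cells/mL | Medium: Fresh YPD growth medium | Dosing: Single dose | Times: Static 4 h at 37 °C with compound, 1 h detection | Detection: AK luminescence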
FN deposition inh: fibronectin deposition inhibition; 350,000 compounds, 0.086% hits; inhibition, % at 12.6 µM; AH1F fibroblasts, Alexa488-fibronectin deposition fluorescence, overnight; AID 743247;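 active = mean inhibition across replicates of 30% or more, regardless of how many single replicates reach that level; inconclusive = mean under 30% yet at least half of replicates reach 30%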;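 note: positive control wells lacked labelled fibronectin entirely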
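Assay system: AH1F fibroblasts / Quantity: 10000 cells per well / Medium: DMEM plus 2% serum, read in PBS / Reagent: labelled fibronectin 24 nM / Dosing: single dose, pinned / Times: 1 h cell attachment, overnight exposure to compound and label / Signal: fluorescence, ex 485 nm, em 525 nm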
miR122 inh: blocks miR-122 activity in Huh7 sensor cells; Huh7 miR-122 Renilla luciferase sensor, 48 h; neutral wells = 0, positive control = 100; activation (reporter increase), % at 12.5 µM; 340,000 compounds, 0.3% hits;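 active = mean replicate activation score at least 90 and every replicate individually at or above 90; inconclusive = only one of the two criteria met; inactive = neither criterion met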;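 note: higher luciferase means less miR-122 activity so hits act as miR-122 inhibitors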
HIV Env fusion: blocks HIV Env-driven cell-cell fusion | 360,000 compounds, 1.1% hits | inhibition, % at 12.3 µM | HeLa-JRFL Env/CEM21 cell fusion, luciferase | AID 651610;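 active = mean replicate inhibition score of at least 50 and every replicate individually at or above 50; inconclusive = only one of the two criteria met; inactive = mean below 50 and not all replicates reaching 50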;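 note: 0% = plate neutral controls and 100% = maraviroc near 300 nM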
Yeast UUG start-2: modulators of start codon recognition fidelity in yeast | shares compounds with Yeast UUG start-1 | S. cerevisiae UUG-start firefly luciferase, luminescence, 4 h; 100% means double the DMSO signal | activation, % at 38 µM | 540 tested, under 10 active | AID 652061;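 active = signal increase whose fitted curve reaches an absolute level of 40 at a concentration under 10 µM; inactive = activity opposite to the expected increase, or the rest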
* hit, by the source's call; i = inactive; ? = inconclusive; / = not tested or not shown; [ ] = another dose, or the depositor's remark. Shown are actives, neighbours in structure and some others; about 1.5% of the full set was active somewhere.

SMILES | Yeast UUG start-1 | PGC1a acetyl inh | Cneo AK release | FN deposition inh | miR122 inh | HIV Env fusion | Yeast UUG start-2
CCC(=O)N(C)C[C@@H]1Oc2cc(C#Cc3ccccc3)ccc2S(=O)(=O)N([C@@H](C)CO)C[C@@H]1C | 183* | -8 | -2 | -7 | 20[16.7 µM] | 8[16.7 µM] | i
C/C=C/c1ccc2c(c1)O[C@@H](CN(C)Cc1cncnc1)[C@@H](C)CN([C@H](C)CO)S2(=O)=O | 110* | -4 | -2 | 3 | / | 4[16.7 µM] | i
Cc1ccc(S(=O)(=O)N[C@H]2CC[C@@H](CCNC(=O)c3ccc4c(c3)OCO4)O[C@@H]2CO)cc1 | 170* | -2 | 6 | / | / | 12[16.7 µM] | i
O=C(Nc1ccccc1)NC1(c2cn(CC(=O)N3CCN(c4ccccc4)CC3)nn2)CCCCC1 | 124* | -9 | -8 | / | / | 2[16.7 µM] | i
Cc1ccc(N2CC(C(=O)Nc3nnc(SCC(N)=O)s3)CC2=O)cc1 (stereo not given) | 164* | / | 2 | / | -1 | -4 | 0
CN(C)CC(=O)N1[C@@H]2Cn3c(ccc(C4=CCCCC4)c3=O)[C@H]1[C@@H](C(=O)NCC1CC1)[C@@H]2CO | / | / | -4 | / | / | / | /
CCN(CC)c1ccc(CNc2ccc3c(c2)ncn3C(C)(C)C)cc1 | -21 | / | 1 | / | / | 25 | /
C[C@H](CO)N1C[C@H](C)[C@@H](CN(C)C(=O)Nc2ccc(F)cc2)Oc2ccc(NC(=O)CCCCCC(=O)Nc3ccccc3N)cc2CC1=O | / | 2 | / | -6 | 0[16.7 µM] | 2[16.7 µM] | /
CCCc1nc(-c2ccc(-c3ccc(F)cc3)cc2)no1 | -9 | 8 | -2 | -2 | -6 | -35 | /
CCCc1nc(-c2cc3ccccc3[nH]c2=O)no1 | 227* | -16 | 0 | 3 | -3 | -12 | 13
CC(C)c1cn(CC[C@@H]2CC[C@H](NC(=O)C3CCCCC3)[C@H](CO)O2)nn1 | 100* | -24 | -2 | 15 | / | 14[16.7 µM] | i
CC(C)c1cn(CC[C@@H]2CC[C@@H](NC(=O)C3CCCC3)[C@H](CO)O2)nn1 | 13 | -14 | 42 | -1 | -17[16.7 µM] | -11[16.7 µM] | /
COc1ccccc1S(=O)(=O)N[C@H]1CC[C@H](CCNC(=O)C2CCCC2)O[C@H]1CO | 224* | 1 | -3 | -13 | 33[16.7 µM] | -6[16.7 µM] | i
O=C(CCN1CCCCC1)NCC[C@H]1CC[C@H](NC(=O)C2CCCC2)[C@H](CO)O1 | 167* | -4 | -4 | / | / | 3[16.7 µM] | i
Cc1ccccc1S(=O)(=O)NCC[C@H]1CC[C@H](NC(=O)C2CCCCC2)[C@H](CO)O1 | 211* | -1 | -10 | -7 | / | -10[16.7 µM] | i
Cc1ccccc1S(=O)(=O)NCC[C@H]1CC[C@@H](NC(=O)C2CCCCC2)[C@@H](CO)O1 | 9 | -6 | -1 | 6 | / | 1[16.7 µM] | /
C=CCn1c(SCC(=O)Nc2ccccc2F)nc2ccccc2c1=O | -12 | -17 | -3 | 4 | 7 | 18 | /
O=C(Nc1ccccc1Cl)c1cc(C2CCCCN2C(=O)CCc2ccccc2)on1 (stereo not given) | -5 | -12 | 1 | -5 | -5 | 11 | /
COCCNC(=O)CC(=O)N/N=C/c1cccc(C(=O)OC)c1 | / | / | / | / | / | 12 | /
Cc1cc(NC(=O)COC(=O)COc2ccc(C(=O)c3ccccc3)cc2)no1 | 184* | 9 | -2 | / | -3 | / | 6
COC(=O)Nc1ccc(S(=O)(=O)N2CCC(Cc3ccccc3)CC2)cc1 | 462* | 6 | 0 | -2 | -5 | -16 | -2
COc1ccccc1CC(=O)OC(C)C(=O)Nc1ccc(S(=O)(=O)N2CCCCC2)cc1 (stereo not given) | -2 | -10 | -1 | 46* | -6 | -8 | -3
COC(=O)Nc1ccc(S(=O)(=O)N2CCC(C)CC2)cc1 | 4 | -1 | 0 | / | 10 | 4 | /
COc1ccccc1CNC(=O)C[C@@H]1C[C@H]2c3cc(NC(=O)c4cccnc4)ccc3O[C@H]2[C@H](CO)O1 | / | -3 | 0 | / | -1[16.7 µM] | -4[16.7 µM] | /
COc1cc(CCC(=O)OCC(=O)Nc2cccc(S(=O)(=O)N(C)C)c2)cc(OC)c1OC | / | / | / | -6 | / | -1 | /

Profiles from above. Screens in order: Yeast UUG start-1, PGC1a acetyl inh, Cneo AK release, FN deposition inh, miR122 inh, HIV Env fusion, Yeast UUG start-2
`CCCc1nc(-c2ccc(-c3ccc(F)cc3)cc2)no1` reads -9, 8, -2, -2, -6, -35, /
`C[C@H](CO)N1C[C@H](C)[C@@H](CN(C)C(=O)Nc2ccc(F)cc2)Oc2ccc(NC(=O)CCCCCC(=O)Nc3ccccc3N)cc2CC1=O` reads /, 2, /, -6, 0[16.7 µM], 2[16.7 µM], /
`Cc1ccc(S(=O)(=O)N[C@H]2CC[C@@H](CCNC(=O)c3ccc4c(c3)OCO4)O[C@@H]2CO)cc1` reads 170*, -2, 6, /, /, 12[16.7 µM], i

(continued)
SMILES | Yeast UUG start-1 | PGC1a acetyl inh | Cneo AK release | FN deposition inh | miR122 inh | HIV Env fusion | Yeast UUG start-2
CCN(CC)S(=O)(=O)c1ccc(NC(=O)COC(=O)CCc2cc(OC)c(OC)c(OC)c2)cc1 | / | / | / | 5 | / | / | 2
O=C(Nc1cccnc1Cl)c1cccc(F)c1 | / | / | / | -8 | / | -11 | /
Cc1cccc(C(=O)Nc2cccnc2Cl)c1 | 146* | 5 | -3 | 5 | 0 | -38 | 1
CCc1ccc(NC(=O)Cc2cn(C)c3ccccc23)cc1 | / | / | / | -1 | ? | -43 | /
Cc1cc(N2CCOCC2)nc2ccc(NC(=S)N3CCCCC3C)cc12 (stereo not given) | 143* | -13 | -3 | -12 | 12 | 25 | 0
Cc1cc(N2CCOCC2)nc2ccc(NC(=O)C3CCCCC3)cc12 | -11 | / | 2 | / | 0 | 16 | /
COc1cc(C(=O)OCC(=O)c2cc(C)n(CC3CCCO3)c2C)cc(OC)c1C (stereo not given) | 107* | / | -5 | -2 | / | 3 | 6
COc1cc(C)ccc1OCC(=O)OCC(=O)c1cc(C)n(CC2CCCO2)c1C (stereo not given) | 6 | / | 4 | 1 | / | -3 | /
CSc1ccc(NC(=O)Nc2ccccc2C(N)=O)cc1 | -19 | / | -1 | 4 | / | -17 | /
O=c1c2c(n3cnnc3n1-c1ccccc1)-c1ccccc1CC21CCCCC1 | active | -6 | 0 | / | -4 | / | -9
Cc1ccc(OCCCCn2c(CO)nc3ccccc32)cc1 | 130* | 4 | -2 | / | -7 | -6 | 4
CCN(CC)C(=S)SCC(=O)c1ccc(F)cc1 | -3 | 1 | 0 | 0 | -5 | -170 | /
COc1nc(C)ccc1-c1noc(-c2cccs2)n1 | 528* | -9 | 2 | 4 | 4 | -104 | -24
COc1nc(-c2ccccc2)ccc1-c1noc(-c2cccs2)n1 | -12 | 8 | -1 | -9 | / | -155 | /
CCC(=O)N[C@H]1CC[C@@H](CC(=O)NCc2cc(F)cc(F)c2)O[C@H]1CO | -6 | -8 | 0 | -2 | -4[16.7 µM] | -2[16.7 µM] | /
Cc1ccc(-c2cnc3c(c2)C(=O)N([C@@H](C)CO)C[C@@H](C)[C@H](CN(C)C(=O)CN(C)C)O3)cc1 | 163* | -5 | 1 | / | / | 36[16.7 µM] | i
C[C@@H]1CN([C@@H](C)CO)C(=O)c2cc(C#CCC3CCCC3)cnc2O[C@@H]1CN(C)C(=O)CN(C)C | 125* | -1 | 5 | -19 | -6[16.7 µM] | 1[16.7 µM] | i
